# Test system: KBM7 cells
# Assay: Viability/proliferation of wild type and ATPIF1 null KBM7 cells treated with mitochondrial poisons (7-AAD, FACS)
# Format: cell-based, human
# Description: In order to identify potential drug targets for treatment of mitochondrial disorders, we decided to use inhibitors of oxidative phosphorylation (OXPHOS) to model mitochondrial diseases and search for genes, loss-of-function of which can confer resistance to mitochondrial dysfunction caused by the poison. To that end, we explored use of a screening platform based on gene inactivation in human cells using insertional mutagenesis that has recently been developed using the KBM7 CML cell line, which is haploid for all chromosomes except chromosome 8 (5). In this system, insertional mutagenesis is accomplished using a gene trap vector. […]
# For the viability assays described in this Example and Example 2, 200,000 cells were used for each sample. Cells were treated with the desired concentration of drug and viability was assessed four days later using 7-AAD and FACS analysis.
# Suspension cells were kept on ice, then spun at 4000 rpm for 5 minutes at 4° C. in a table-top microcentrifuge, supernatant aspirated, cells washed once with ice-cold PBS, resuspended in ice-cold PBS with 2 ug/mL 7-AAD viability dye, incubated for 5 minutes on ice, and analyzed by FACS. […] Viability was assessed by 7-AAD exclusion. […] For primary hepatocytes, 100,000 cells were seeded per well of a 24-well TPP plate (Light Labs), treated with antimycin, and then analyzed using CellTiter-Glo.
substance,measurement,value
antimycin A,control (unmutagenized) KBM7 cells killed (lethal),more than 99.99%

# Source: patent publication US20150065556A1, “THERAPEUTIC TARGETS FOR MITOCHONDRIAL DISORDERS” (Whitehead Institute for Biomedical Research, priority 2013, published 2015)
